Source: publication PMC7529893, “Structural basis for substrate recognition and chemical inhibition of oncogenic MAGE ubiquitin ligases” (Nature Communications, 2020)

Test system: Caco-2 cells
Experiment: High throughput Caco-2 permeability
Conditions: 10 µmol/l, 2 h

Papp A→B (read-out: Caco-2 permeability, A/B (nm/sec), apical to basolateral): 21.4 ×10⁻⁶ cm/s
Papp B→A (read-out: Caco-2 permeability, B/A (nm/sec), basolateral to apical): 12.3 ×10⁻⁶ cm/s
Structure (SMILES): Cn1ccc2cc(CNCCCNc3ccnc4cc(C(F)(F)F)ccc34)ccc21
